# Experiments:
# Protein sequences, listed by entry. Tags and fused reporters are not part of them.
# UniProt O14842, whole entry: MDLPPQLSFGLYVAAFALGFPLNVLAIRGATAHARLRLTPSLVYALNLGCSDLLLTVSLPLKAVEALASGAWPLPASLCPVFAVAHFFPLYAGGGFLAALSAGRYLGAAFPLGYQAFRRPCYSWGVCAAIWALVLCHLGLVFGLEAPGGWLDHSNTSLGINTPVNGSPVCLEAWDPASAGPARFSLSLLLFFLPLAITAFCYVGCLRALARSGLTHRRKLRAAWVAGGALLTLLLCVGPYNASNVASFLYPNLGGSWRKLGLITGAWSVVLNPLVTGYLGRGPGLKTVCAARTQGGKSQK
# Human GPR40 [1] = biological target: T1, Human GPR40 (Homo sapiens, UniProt O14842); test: Inositol Phosphate Turnover (IP1) assay in HEK cells stably expressing human GPR40; type: cell-based; settings: read-out: Human GPR40 IP1, EC50
# Method: (§1) Human and mouse GPR40 stable cell-lines were generated in CHO cells stably expressing NFAT BLA (Beta-lactamase). A human GPR40 stable cell-line was generated in HEK cells stably expressing the acquorin expressing reporter. The expression plasmids were transfected using lipofectamine (Life Technologies) following manufacturer's instructions. Stable cell-lines were generated following drug selection.
# The assay was performed in 96-well format. HEK cells stably expressing human GPR40 were plated to be 60-80% confluent within 72 h. After 72 h, the plates were aspirated and the cells washed with inositol-free DMEM (ICN). The wash media was replaced with 150 μL of 3H-inositol labeling media (inositol-free media containing 0.4% human albumin or 0.4% mouse albumin, 1× pen/strep antibiotics, glutamine, 25 mM HEPES to which was added 3H-myo-inositol NEN #NET114A 1 mCi/mL, 25 Ci/mmol diluted 1:150 in loading media with a final specific radioactivity of 1 μCi/150 μL). Alternatively, the human and mouse albumin were added after the overnight labeling step before the addition of LiCl.
# The assay was typically run the next day after 18 h labeling. On the day of the assay, 5 μL of 300 mM LiCl were added to all wells and incubated at 37 degrees for 20 min. 0.75 μL of 200× compounds were added and incubated with the cells for 60 min at 37 degrees. The media was then aspirated off and the assay terminated with the addition of 60 μL 10 mM formic acid. The cells were lysed for 60 min at room temperature. 15-30 μL of lysate was mixed with 70 μL/1 mg YSi SPA beads (Amersham) in clear bottom Isoplates. The plates were shaken for 2 h at room temperature. Beads were allowed to settle and the plates are counted in the Wallac Microbeta.
# Human GPR40 [2] = biological target: T1, Human GPR40; test: FLIPR assay, agonist-induced calcium mobilization in GPR40/CHO NFAT BLA cells; type: cell-based; settings: read-out: Human GPR40, FLIPR, EC50
# Method: as §1
# FLIPR (Fluorimetric Imaging Plate Reader, Molecular Devices) assays were performed to measure agonist-induced calcium mobilization of the stable clones. For the FLIPR assay, one day before assay, GPR40/CHO NFAT BLA cells were seeded into black-wall-clear-bottom 384-well plates (Costar) at 1.4×10e4 cells/20 μL medium/well. The cells were incubated with 20 μl/well of the assay buffer (HBSS, 0.1% BSA, 20 mM HEPES, 2.5 mM probenecid, pH 7.4) containing 8 μM fluo-4, AM, 0.08% pluronic acid at room temperature for 100 minutes. Fluorescence output was measured using FLIPR. Compounds were dissolved in DMSO and diluted to desired concentrations with assay buffer. 13.3 μL/well of compound solution was added.
EC50 (Human GPR40 [1]),EC50 (Human GPR40 [2]),SMILES
186 nM,0.5 nM,COc1ccc(F)c(-c2ccc3c(c2/C=C/C2CCCCC2)CC[C@H]3Oc2cccc([C@@H](CC(=O)O)C3CC3)c2)c1
1160 nM,13 nM,COc1ccc(F)c(-c2ccc3c(c2-c2csc(N4CCCC4)n2)CC[C@H]3Oc2cccc([C@@H](CC(=O)O)C3CC3)c2)c1
134 nM,2 nM,COc1ccc(F)c(-c2ccc3c(c2-c2ccnn2C(C)C)CC[C@H]3Oc2cccc([C@@H](CC(=O)O)C3CC3)c2)c1
51 nM,1 nM,COc1ccc(F)c(-c2ccc3c(c2COC(C)(C)C)CC[C@H]3Oc2cccc([C@@H](CC(=O)O)C3CC3)c2)c1
411 nM,22 nM,COc1ccc(F)c(-c2ccc3c(c2-c2cn(C)nn2)CC[C@H]3Oc2cccc([C@H](C3CC3)[C@H](C)C(=O)O)c2)c1
42 nM,1 nM,COc1ccc(F)c(-c2ccc3c(c2-c2cnn(C)c2C)CC[C@H]3Oc2cccc([C@H](C3CC3)[C@H](C)C(=O)O)c2)c1
128 nM,4 nM,COc1cc(-c2ccc3c(c2)CC[C@H]3Oc2cccc([C@@H](CC(=O)O)C3CC3)c2)c(F)cn1
391 nM,4 nM,COc1ccc(F)c(-c2ccc3c(c2-c2cc(C(F)(F)F)nn2C)CC[C@H]3Oc2cccc([C@@H](CC(=O)O)C3CC3)c2)c1
243 nM,4 nM,COc1ccc(F)c(-c2ccc3c(c2/C=C/C(C)(C)C)CC[C@H]3Oc2cccc([C@@H](CC(=O)O)C3CC3)c2)c1
160 nM,0.7 nM,COc1ccc(F)c(-c2ccc3c(c2-c2ccsc2)CC[C@H]3Oc2cccc([C@@H](CC(=O)O)C3CC3)c2)c1
232 nM,6 nM,C=C(C)c1c(-c2cc(OC)ccc2F)ccc2c1CC[C@H]2Oc1cccc([C@@H](CC(=O)O)C2CC2)c1
53 nM,0.8 nM,COc1ccc(F)c(-c2ccc3c(c2-c2cccc4ccn(C)c24)CC[C@H]3Oc2cccc([C@@H](CC(=O)O)C3CC3)c2)c1
94 nM,0.8 nM,COc1ccc(F)c(-c2ccc3c(c2C2CC2)CC[C@H]3Oc2cccc([C@@H](CC(=O)O)C3CC3)c2)c1
347 nM,3 nM,COc1ccc(F)c(-c2ccc3c(c2C2CCCC2)CC[C@H]3Oc2cccc([C@@H](CC(=O)O)C3CC3)c2)c1
823 nM,3 nM,COc1ccc(F)c(-c2ccc3c(c2-c2cccn2C(=O)OC(C)(C)C)CC[C@H]3Oc2cccc([C@@H](CC(=O)O)C3CC3)c2)c1
96 nM,0.6 nM,COc1ccc(F)c(-c2ccc3c(c2C=C(C)C)CC[C@H]3Oc2cccc([C@@H](CC(=O)O)C3CC3)c2)c1
,7 nM,COc1ccc(F)c(-c2ccc3c(c2Cl)CC[C@H]3Oc2cccc([C@@H](CC(=O)O)C3CC3)c2)c1 [Example 36]
28 nM,0.8 nM,COc1ccc(F)c(-c2ccc3c(c2-c2cnn4ccccc24)CC[C@H]3Oc2cccc([C@H](C3CC3)[C@H](C)C(=O)O)c2)c1

SMILES,EC50 (Human GPR40 [1]),EC50 (Human GPR40 [2])
COc1ccc(F)c(-c2ccc3c(c2-c2ccnn2C)CC[C@H]3Oc2cccc([C@@H](CC(=O)O)C3CC3)c2)c1,883 nM,102 nM

# Source: patent publication US9957219B2, “Antidiabetic bicyclic compounds” (Merck Sharp & Dohme Corp., priority 2013, dated 2018)
